Results on one compound are retold here after patent publication US5994563A, “Arylmethylphosphonic acid derivatives useful in treating bone wasting diseases” (Ortho Pharmaceutical Corporation, priority 1999, dated 1999).

The chains behind the UniProt entries cited, without tags or fusion partners. Residues count along the entry.
UniProt P08575, 26-1306 limits assumed: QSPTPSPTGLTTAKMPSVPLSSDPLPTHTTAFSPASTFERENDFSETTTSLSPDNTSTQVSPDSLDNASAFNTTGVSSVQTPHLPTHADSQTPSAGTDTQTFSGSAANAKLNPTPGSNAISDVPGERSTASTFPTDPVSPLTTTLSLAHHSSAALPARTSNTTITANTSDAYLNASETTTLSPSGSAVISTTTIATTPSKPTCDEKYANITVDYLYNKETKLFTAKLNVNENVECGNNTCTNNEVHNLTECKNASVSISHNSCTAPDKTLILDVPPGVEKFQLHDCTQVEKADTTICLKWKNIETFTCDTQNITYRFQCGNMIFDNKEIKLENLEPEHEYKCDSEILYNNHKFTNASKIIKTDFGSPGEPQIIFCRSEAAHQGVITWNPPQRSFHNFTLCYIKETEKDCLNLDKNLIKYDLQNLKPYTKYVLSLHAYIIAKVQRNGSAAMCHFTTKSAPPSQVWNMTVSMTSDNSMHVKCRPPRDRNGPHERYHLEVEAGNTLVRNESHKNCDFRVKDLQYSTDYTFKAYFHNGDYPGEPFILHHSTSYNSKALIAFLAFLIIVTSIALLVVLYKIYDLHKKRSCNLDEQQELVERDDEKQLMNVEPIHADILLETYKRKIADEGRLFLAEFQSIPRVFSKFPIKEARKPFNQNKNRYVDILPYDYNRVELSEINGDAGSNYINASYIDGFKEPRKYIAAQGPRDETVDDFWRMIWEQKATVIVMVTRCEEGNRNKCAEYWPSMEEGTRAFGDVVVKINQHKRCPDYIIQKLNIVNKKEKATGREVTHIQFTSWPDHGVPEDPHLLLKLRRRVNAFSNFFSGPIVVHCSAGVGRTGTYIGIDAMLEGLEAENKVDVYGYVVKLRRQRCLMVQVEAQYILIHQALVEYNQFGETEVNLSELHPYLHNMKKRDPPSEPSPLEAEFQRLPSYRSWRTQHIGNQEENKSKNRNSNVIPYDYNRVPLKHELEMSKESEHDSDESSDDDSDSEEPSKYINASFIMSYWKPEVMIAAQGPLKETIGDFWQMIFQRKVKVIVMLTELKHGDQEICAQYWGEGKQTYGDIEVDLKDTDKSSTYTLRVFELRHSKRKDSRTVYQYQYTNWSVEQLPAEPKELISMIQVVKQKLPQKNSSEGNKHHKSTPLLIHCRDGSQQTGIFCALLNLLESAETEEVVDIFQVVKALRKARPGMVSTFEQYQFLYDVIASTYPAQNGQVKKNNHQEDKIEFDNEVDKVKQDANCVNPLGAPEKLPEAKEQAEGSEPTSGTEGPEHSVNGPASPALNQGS

Molecules are shown by their SMILES.

Experiment [1] has as its system human osteoblastic (TE85) tyrosinephosphate phosphatase. In words: Tyrosylphosphate Phosphatase Enzyme Inhibition Assay (TE85). In kind it is biochemical. The note with it: read-out: TF85 IC50; enzyme from TE85 cell extract, 32P peptide substrate 0.1 uM, 15 minutes at 37° C.
Another experiment has as its target CD45 (Homo sapiens, UniProt P08575). Put plainly: Enzyme Assay (CD45). The settings on record: read-out: IC50 (CD45); enzyme from Jurkat cell (JEG-6) membranes, pH 6.0, 90 minutes at 37° C.

For orientation: IC50 means the concentration needed to halve the response being measured.

On to `[N-]=[N+]=Nc1ccc([N+](=O)[O-])cc1C(O)P(=O)(O)O` (centres unmarked), for which the IC50 in experiment [1] was found to be 3000 nM; at CD45, 7.5 µM.
